From patent US9511086B2, “Method for improving immune system function by administering agents that inhibit DNA-dependent protein kinase-directed apoptosis” (The Board of Trustees of the Leland Stanford Junior …, priority 2010, dated 2016)

System: CD4+CD45RO− T cells from RA patients and controls
Assay: T-cell apoptosis (PI) with homeostatic cytokines
Type: cell-based, human
Details: 72 h culture; IL-2 20 U/ml, IL-7 20 ng/ml, IL-15 10 ng/ml; similar in control and RA T cells
Description: FIG. 1. Apoptotic susceptibility and DNA damage in naïve CD4 T cells from RA patients. CD4+CD45RO− T cells were isolated from the peripheral blood of RA patients and controls. Cells were maintained in culture without mitogenic stimulation for 72 h. (A) T cells undergoing apoptosis were identified by Annexin V and 7-AAD staining in patient-derived and control samples. Data are given as mean±SEM from 6 patients and 6 controls. (B) Representative data from one patient and one control collected after 72 h are shown. (C) Cells were maintained in culture with IL-2 (20 U/ml), IL-7 (20 ng/ml), IL-15 (10 ng/ml), or a mixture of the three (Mix) for 72 h. […] (D) DNA breaks were quantified by comet assay after 72 h. Data are given as mean±SEM of 7 patients and 6 controls with a minimum of 90 individual cells analyzed in each sample. […] (F) The level of 8-oxoguanine in 5 RA and 5 control samples is given as mean fluorescence intensity (MFI) of FITC-8-oxoguanine±SEM. (G) 53BP1 foci were determined by immunofluorescence staining and confocal laser microscopy after 72 h. […]
To quantify T-cell apoptosis, CD4^+CD45RO^− cells were washed and suspended in 500 μl FACS buffer supplemented with EasyComp Blank Particles (Spherotech, Lake Forest, Ill.). Uptake of PI (Sigma-Aldrich) was determined by flow cytometry. Apoptotic cells were detected with PE-Annexin V (BD Biosciences, San Jose, Calif.) and 7-AAD (BD Biosciences).

IL-2: growth-promoting, T-cell homeostatic cytokine
apoptosis rates / T-cell attrition: prevented only one-third of the T-cell attrition
